Results from patent publication US8088763B2 (priority 2004, dated 2012).

By UniProt entry, the sequences of proteins in these tests, tags left out. Where a name states a change or a piece, a line headed by the entry shows the natural chain unless it says otherwise. Residues count along the entry.
UniProt P35372, whole entry, looked up: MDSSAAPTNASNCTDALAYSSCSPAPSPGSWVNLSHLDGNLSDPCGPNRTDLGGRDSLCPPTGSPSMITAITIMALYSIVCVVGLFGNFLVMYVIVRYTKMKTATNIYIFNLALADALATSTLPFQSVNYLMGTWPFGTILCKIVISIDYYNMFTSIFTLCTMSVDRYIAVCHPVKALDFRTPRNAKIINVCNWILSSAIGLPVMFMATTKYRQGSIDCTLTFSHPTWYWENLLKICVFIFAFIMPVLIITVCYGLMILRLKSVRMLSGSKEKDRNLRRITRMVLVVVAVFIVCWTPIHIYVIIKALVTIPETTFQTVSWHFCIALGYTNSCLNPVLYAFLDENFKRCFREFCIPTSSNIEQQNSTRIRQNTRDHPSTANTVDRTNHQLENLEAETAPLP
UniProt Q63380, 1-617 limits assumed: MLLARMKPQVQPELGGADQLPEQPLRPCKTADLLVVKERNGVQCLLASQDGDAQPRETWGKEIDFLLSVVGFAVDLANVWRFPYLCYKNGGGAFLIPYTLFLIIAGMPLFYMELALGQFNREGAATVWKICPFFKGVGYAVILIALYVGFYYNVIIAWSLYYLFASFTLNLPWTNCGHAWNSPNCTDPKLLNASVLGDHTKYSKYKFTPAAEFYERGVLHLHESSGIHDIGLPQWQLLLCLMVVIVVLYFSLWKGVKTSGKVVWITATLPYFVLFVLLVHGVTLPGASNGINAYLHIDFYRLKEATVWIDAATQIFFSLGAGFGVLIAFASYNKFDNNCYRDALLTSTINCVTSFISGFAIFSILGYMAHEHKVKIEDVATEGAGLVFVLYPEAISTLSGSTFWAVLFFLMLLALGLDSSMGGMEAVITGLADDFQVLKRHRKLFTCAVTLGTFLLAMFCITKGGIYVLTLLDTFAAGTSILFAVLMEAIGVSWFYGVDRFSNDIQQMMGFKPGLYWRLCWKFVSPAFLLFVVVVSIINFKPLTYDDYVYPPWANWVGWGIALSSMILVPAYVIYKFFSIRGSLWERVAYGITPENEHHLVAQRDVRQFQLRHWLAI
UniProt P31652, whole entry, looked up: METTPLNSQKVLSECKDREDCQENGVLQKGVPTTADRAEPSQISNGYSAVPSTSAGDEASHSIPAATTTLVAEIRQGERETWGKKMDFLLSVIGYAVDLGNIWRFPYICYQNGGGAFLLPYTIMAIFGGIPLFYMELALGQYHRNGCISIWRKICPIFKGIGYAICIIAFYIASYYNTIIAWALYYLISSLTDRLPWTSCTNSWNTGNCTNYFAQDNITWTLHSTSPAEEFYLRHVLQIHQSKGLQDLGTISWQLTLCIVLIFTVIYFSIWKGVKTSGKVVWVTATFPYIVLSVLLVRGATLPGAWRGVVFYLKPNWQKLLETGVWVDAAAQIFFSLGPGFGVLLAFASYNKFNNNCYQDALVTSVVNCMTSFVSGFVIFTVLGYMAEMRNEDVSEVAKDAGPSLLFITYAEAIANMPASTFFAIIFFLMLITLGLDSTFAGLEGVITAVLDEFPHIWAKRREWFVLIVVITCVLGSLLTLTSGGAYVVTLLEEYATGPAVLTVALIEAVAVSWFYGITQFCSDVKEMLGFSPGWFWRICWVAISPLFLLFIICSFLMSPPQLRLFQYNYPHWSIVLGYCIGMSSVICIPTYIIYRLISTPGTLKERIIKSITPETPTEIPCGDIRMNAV
UniProt P41146: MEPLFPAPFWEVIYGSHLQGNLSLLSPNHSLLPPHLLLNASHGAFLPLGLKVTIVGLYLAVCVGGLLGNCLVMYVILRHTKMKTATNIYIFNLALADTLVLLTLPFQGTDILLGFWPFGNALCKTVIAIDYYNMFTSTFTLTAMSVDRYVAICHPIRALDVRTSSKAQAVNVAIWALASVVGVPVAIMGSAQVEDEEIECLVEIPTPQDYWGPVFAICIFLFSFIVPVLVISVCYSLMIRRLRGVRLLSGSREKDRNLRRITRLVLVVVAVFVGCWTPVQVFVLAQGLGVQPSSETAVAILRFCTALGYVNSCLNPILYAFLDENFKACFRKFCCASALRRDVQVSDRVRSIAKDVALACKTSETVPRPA

Columns and labels:
human μ-opiate receptor = human μ-opiate receptor (Homo sapiens, UniProt P35372); experiment: μ-binding: displacement of [3H]-naloxone, receptor membrane preparation of CHO-K1 cells; conditions: 1 μM test compound; 1 nmol/l [3H]-naloxone
NA-uptake = NA-uptake (Rattus norvegicus, UniProt Q63380); experiment: Noradrenalin re-uptake in rat brain synaptosomes (P2 fraction, hypothalamus); format: biochemical; conditions: 10 μM test compound
5HT-uptake = 5HT-uptake (Rattus norvegicus, UniProt P31652); experiment: Serotonin re-uptake in rat brain synaptosomes (P2 fraction, medulla+pons); format: biochemical; conditions: 10 μM test compound
ORL1 receptor = ORL1 receptor (Homo sapiens, UniProt P41146); experiment: ORL1 binding: receptor binding assay with 3H-nociceptin/orphanin FQ, membranes of recombinant CHO-ORL1 cells; conditions: 1 μM test compound; 0.5 nM 3H-nociceptin/orphanin FQ

| Molecule | μ-binding, [1 μM], % inhibition (human μ-opiate receptor) [%] | NA-uptake [10 μM], % inhibition (NA-uptake) [%] | 5HT-uptake [10 μM], % inhibition (5HT-uptake) [%] | ORL1-binding, [1 μM], % inhibition (ORL1 receptor) [%] |
| --- | --- | --- | --- | --- |
| Glutaric acid-(4-benzyl-4-dimethylamino- cyclohexyl)-amide[2-(5-bromo-2-methoxy- phenyl)-ethyl]-amide | 89 | 109 | 96 |  |
| Cc1cccc(CC2(N(C)C)CCC(NC(=O)CCC(=O)NCc3cccc(Br)c3)CC2)c1 (stereo not drawn) | 53 | 102 | 97 |  |
| Glutaric acid-(4-benzyl-4-dimethylamino- cyclohexyl)-amide[1-(2,6-dichloro-benzyl)- pyrrolidin-3-yl]-amide | 67 | 102 | 96 |  |
| CN(C)C1(Cc2cccc(Cl)c2)CCC(NC(=O)CCC(=O)N2CCSCC2)CC1 (stereo not drawn) | 57 | 92 | 94 |  |
| Cc1cccc(CC2(N(C)C)CCC(NC(=O)CCC(=O)NC(C)CCc3ccccc3)CC2)c1 (stereo not drawn) | 57 | 96 | 94 |  |
| CN(C)C1(Cc2cccc(Cl)c2)CCC(NC(=O)CCC(=O)NCc2cc(Cl)cc(Cl)c2)CC1 (stereo not drawn) | 60 | 94 | 92 |  |
| CN(C)C1(c2ccccc2)CCC(NC(=O)CCC(=O)N2CCC(O)(c3cccc(C(F)(F)F)c3)CC2)CC1 (stereo not drawn) |  |  |  | 77 |
| CN(C)C1(c2cccs2)CCC(NC(=O)CCCC(=O)NCc2ccc(F)cc2C(F)(F)F)CC1 (stereo not drawn) |  |  |  | 96 |
| COc1ccc(OCCNC(=O)CCC(=O)NC2CCC(c3ccccc3)(N(C)C)CC2)cc1 (stereo not drawn) |  |  |  | 74 |
| CN(C)C1(c2cccs2)CCC(NC(=O)CCC(=O)NCCSCc2c(Cl)cccc2Cl)CC1 (stereo not drawn) |  |  |  | 100 |
| Cc1cccc(CC2(N(C)C)CCC(NC(=O)CCC(=O)NCCc3cccs3)CC2)c1 (stereo not drawn) | 59 | 85 | 92 |  |
| CN(C)C1(c2cccs2)CCC(NC(=O)CCCC(=O)Nc2ccc(NC(=O)OC(C)(C)C)cc2)CC1 (stereo not drawn) |  |  |  | 86 |
| CC(CCc1ccccc1)NC(=O)CCCC(=O)NC1CCC(c2cccs2)(N(C)C)CC1 (stereo not drawn) |  |  |  | 90 |
| C=C(C)CN(CC)C(=O)CCCC(=O)NC1CCC(c2cccs2)(N(C)C)CC1 (stereo not drawn) |  |  |  | 78 |
| CN(C)C1(c2ccccc2)CCC(NC(=O)CCC(=O)NCC23CC4CC(CC(C4)C2)C3)CC1 (stereo not drawn) |  |  |  | 72 |
| Glutaric acid-(4-benzyl-4-dimethylamino- cyclohexyl)-amide[2-(4-fluoro-phenyl)- ethyl]-amide | 65 | 94 | 94 |  |
| CN(C)C1(Cc2ccccc2)CCC(NC(=O)CCCC(=O)N2CCN(Cc3c(Cl)cccc3Cl)CC2)CC1 (stereo not drawn) | 55 | 95 | 100 |  |
| CN(C)C1(c2cccs2)CCC(NC(=O)CCC(=O)NCCc2cccc(C(F)(F)F)c2)CC1 (stereo not drawn) |  |  |  | 98 |
| Glutaric acid-(4-dimethylamino-4-thiophen- 2-yl-cyclohexyl)-amide[2-(4-phenoxy- phenyl)-ethyl]-amide |  |  |  | 99 |
| CN(C)C1(c2ccccc2)CCC(NC(=O)CCC(=O)NCCc2cccc(Cl)c2)CC1 (stereo not drawn) |  |  |  | 98 |
| CCN(CCNC(=O)CCC(=O)NC1CCC(c2ccccc2)(N(C)C)CC1)c1cccc(C)c1 (stereo not drawn) |  |  |  | 71 |

| Molecule | μ-binding, [1 μM], % inhibition (human μ-opiate receptor) [%] | NA-uptake [10 μM], % inhibition (NA-uptake) [%] | 5HT-uptake [10 μM], % inhibition (5HT-uptake) [%] | ORL1-binding, [1 μM], % inhibition (ORL1 receptor) [%] |
| --- | --- | --- | --- | --- |
| Cc1cccc(CC2(N(C)C)CCC(NC(=O)CCC(=O)NC3Cc4ccccc4C3)CC2)c1 (stereo not drawn) | 54 | 101 | 96 |  |
| CN(Cc1ccccc1)C(=O)CCCC(=O)NC1CCC(c2cccs2)(N(C)C)CC1 (stereo not drawn) |  |  |  | 96 |
| CC(C)CC(NC(=O)CCCC(=O)NC1CCC(c2cccs2)(N(C)C)CC1)C(=O)OCc1ccccc1 (stereo not drawn) |  |  |  | 75 |
| CN(C)C1(c2ccccc2)CCC(NC(=O)CCC(=O)NCCc2ccc(Cl)cc2)CC1 (stereo not drawn) |  |  |  | 92 |
| CN(C)C1(c2cccs2)CCC(NC(=O)CCCC(=O)Nc2cccc(Oc3ccccc3)c2)CC1 (stereo not drawn) |  |  |  | 98 |
| CN(C)C1(c2cccs2)CCC(NC(=O)CCCC(=O)NCc2cccc3ccccc23)CC1 (stereo not drawn) |  |  |  | 98 |
| CN(C)C1(c2cccs2)CCC(NC(=O)CCCC(=O)Nc2ccc(C(C#N)c3ccccc3)cc2)CC1 (stereo not drawn) |  |  |  | 77 |
| CN(C)C1(c2cccs2)CCC(NC(=O)CCCC(=O)NCCc2ccc(Br)cc2)CC1 (stereo not drawn) |  |  |  | 99 |
| CN(C)C1(c2cccs2)CCC(NC(=O)CCC(=O)Nc2ccc(Oc3ccccc3)cc2)CC1 (stereo not drawn) |  |  |  | 72 |
| CN(C(=O)CCC(=O)NC1CCC(c2cccs2)(N(C)C)CC1)C1CCN(Cc2ccc(-c3ccccc3)cc2)C1 (stereo not drawn) |  |  |  | 60 |
| CN(C)C1(c2cccs2)CCC(NC(=O)CCC(=O)NCCOc2ccccc2)CC1 (stereo not drawn) |  |  |  | 90 |
| CC(NC(=O)CCC(=O)NC1CCC(c2cccs2)(N(C)C)CC1)C(=O)OCc1ccccc1 (stereo not drawn) |  |  |  | 91 |
| CN(CCCNC(=O)CCC(=O)NC1CCC(c2cccs2)(N(C)C)CC1)c1ccccc1 (stereo not drawn) |  |  |  | 88 |
| Cc1ccccc1CNC(=O)CCC(=O)NC1CCC(Cc2cccc(Cl)c2)(N(C)C)CC1 (stereo not drawn) | 56 | 98 | 96 |  |
| Glutaric acid-(4-dimethylamino-4-thiophen- 2-yl-cyclohexyl)-amide 3-trifluoromethoxy- benzylamide |  |  |  | 92 |
| CN(C)C1(c2cccs2)CCC(NC(=O)CCCC(=O)NCCc2cccs2)CC1 (stereo not drawn) |  |  |  | 97 |
| CCN(Cc1ccccc1)C(=O)CCC(=O)NC1CCC(c2cccs2)(N(C)C)CC1 (stereo not drawn) |  |  |  | 92 |
| CN(C)C1(c2cccs2)CCC(NC(=O)CCCC(=O)NC2CCN(Cc3c(Cl)cccc3Cl)C2)CC1 (stereo not drawn) |  |  |  | 95 |
| CN(C)C1(c2ccccc2)CCC(NC(=O)CCC(=O)N2CCC(Cc3ccccc3)CC2)CC1 (stereo not drawn) |  |  |  | 95 |
| CN(C)C1(c2ccccc2)CCC(NC(=O)CCC(=O)NCCc2cccc(F)c2)CC1 (stereo not drawn) |  |  |  | 94 |
| CN(C)C1(c2cccs2)CCC(NC(=O)CCCC(=O)NC2CC2c2ccccc2)CC1 (stereo not drawn) |  |  |  | 84 |

| Molecule | μ-binding, [1 μM], % inhibition (human μ-opiate receptor) [%] | NA-uptake [10 μM], % inhibition (NA-uptake) [%] | 5HT-uptake [10 μM], % inhibition (5HT-uptake) [%] | ORL1-binding, [1 μM], % inhibition (ORL1 receptor) [%] |
| --- | --- | --- | --- | --- |
| CN(C)C1(c2cccs2)CCC(NC(=O)CCCC(=O)N2CC=C(c3ccc(F)cc3)CC2)CC1 (stereo not drawn) |  |  |  | 79 |
| CN(CC(=O)OCc1ccccc1)C(=O)CCCC(=O)NC1CCC(c2cccs2)(N(C)C)CC1 (stereo not drawn) |  |  |  | 98 |
| CCC(C)c1ccc(NC(=O)CCCC(=O)NC2CCC(c3cccs3)(N(C)C)CC2)cc1 (stereo not drawn) |  |  |  | 94 |
| COc1ccc(Br)cc1CCNC(=O)CCCC(=O)NC1CCC(c2cccs2)(N(C)C)CC1 (stereo not drawn) |  |  |  | 100 |
| CN(C)C1(c2cccs2)CCC(NC(=O)CCCC(=O)NCCCc2ccccc2)CC1 (stereo not drawn) |  |  |  | 94 |
| Glutaric acid-(4-dimethylamino-4-thiophen- 2-yl-cyclohexyl)-amide[2-(4-fluoro- phenyl)-ethyl]-amide |  |  |  | 95 |
| Cc1cccc(CC2(N(C)C)CCC(NC(=O)CCC(=O)NCCc3cccc(F)c3)CC2)c1 (stereo not drawn) | 56 | 99 | 93 |  |
| CN(C)C1(c2cccs2)CCC(NC(=O)CCC(=O)NCCc2ccc(Oc3ccccc3)cc2)CC1 (stereo not drawn) |  |  |  | 98 |
| Cc1cccc(Cl)c1CNC(=O)CCC(=O)NC1CCC(Cc2cccc(Cl)c2)(N(C)C)CC1 (stereo not drawn) | 64 | 97 | 97 |  |
| CC1CCC(NC(=O)CCCC(=O)NC2CCC(c3cccs3)(N(C)C)CC2)CC1 (stereo not drawn) |  |  |  | 81 |
| CN(C)C1(c2cccs2)CCC(NC(=O)CCCC(=O)N2CCN(Cc3cc4ccccc4o3)CC2)CC1 (stereo not drawn) |  |  |  | 57 |
| CC(CCc1ccccc1)NC(=O)CCC(=O)NC1CCC(c2cccs2)(N(C)C)CC1 (stereo not drawn) |  |  |  | 88 |
| CCCCCNC(=O)CCC(=O)NC1CCC(c2ccccc2)(N(C)C)CC1 (stereo not drawn) |  |  |  | 68 |
| CCN(CCNC(=O)CCC(=O)NC1CCC(c2cccs2)(N(C)C)CC1)c1cccc(C)c1 (stereo not drawn) |  |  |  | 73 |
| CN(C)C1(c2cccs2)CCC(NC(=O)CCC(=O)NCCc2cccc(Cl)c2)CC1 (stereo not drawn) |  |  |  | 98 |
| Glutaric acid-(4-dimethylamino-4-thiophen- 2-yl-cyclohexyl)-amide[2-(3-methoxy- phenyl)-ethyl]-amide |  |  |  | 95 |
| COc1ccc2ccccc2c1CN1CCN(C(=O)CCCC(=O)NC2CCC(c3cccs3)(N(C)C)CC2)CC1 (stereo not drawn) |  |  |  | 82 |
| CC(CNC(=O)CCCC(=O)NC1CCC(c2cccs2)(N(C)C)CC1)c1ccc(Cl)cc1 (stereo not drawn) |  |  |  | 98 |
| CN(C)C1(c2cccs2)CCC(NC(=O)CCC(=O)NCC23CC4CC(CC(C4)C2)C3)CC1 (stereo not drawn) |  |  |  | 90 |
